# Test results published in PubChem BioAssay AID624330 (Southern Research Specialized Biocontainment Screening …, 2012).
# The chains behind the UniProt entries cited, without tags or fusion partners.
# UniProt Q9H0H5, whole entry: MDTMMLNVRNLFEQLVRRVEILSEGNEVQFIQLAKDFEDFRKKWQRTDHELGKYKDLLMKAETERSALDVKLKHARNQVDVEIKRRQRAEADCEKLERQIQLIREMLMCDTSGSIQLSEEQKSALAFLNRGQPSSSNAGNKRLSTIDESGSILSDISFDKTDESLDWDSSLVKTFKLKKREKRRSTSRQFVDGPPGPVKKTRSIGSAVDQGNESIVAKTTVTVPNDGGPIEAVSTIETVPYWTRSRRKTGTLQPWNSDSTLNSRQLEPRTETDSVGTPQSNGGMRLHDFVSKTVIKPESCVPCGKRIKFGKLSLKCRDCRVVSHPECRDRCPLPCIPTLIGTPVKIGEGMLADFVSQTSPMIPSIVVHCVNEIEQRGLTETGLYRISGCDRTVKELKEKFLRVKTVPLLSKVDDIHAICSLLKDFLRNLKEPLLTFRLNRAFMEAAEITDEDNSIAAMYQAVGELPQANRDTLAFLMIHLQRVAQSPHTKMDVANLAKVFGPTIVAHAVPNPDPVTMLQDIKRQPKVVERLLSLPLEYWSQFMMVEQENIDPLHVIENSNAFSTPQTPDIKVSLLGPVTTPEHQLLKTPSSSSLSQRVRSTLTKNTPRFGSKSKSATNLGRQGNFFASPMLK
# This is a selection; strong and weak results do not stand in their true shares. Results with a measured potency or affinity are listed apart. Calls of active or inactive are those of the source.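 How the source made its calls: active means first-screen hits whose inhibition reached a set limit at any dose in the follow-up dose series; inconclusive means inhibition above the set first-screen limit but never retested; inactive means the rest.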
# Target: Rac GTPase-activating protein 1 (Homo sapiens) (UniProt Q9H0H5)
# Assay: blockers of MgcRacGAP-driven Rac1 GTP hydrolysis – biochemical, ADP Hunter fluorescence, primary and confirmatory, confirmation (AID 624330);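 further: fluorescence reports GDP produced by GAP-driven GTP hydrolysis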
# Conditions: MgcRacGAP-stimulated Rac1 GTP hydrolysis, at 30 µM, active compounds read high, GST-tagged Rac1 F28L mutant substrate
row,SMILES,inhibition
1,CP(=O)(Nc1cccc(Br)c1)Oc1ccccc1 (stereo unspecified),inactive: 13.2%
